Read-outs that look alike come from different tables or passages of the source.
Legend:
PPIL1 [1] = target: T1, PPIL1 (Homo sapiens, UniProt Q9Y3C6); assay: Competition anisotropy binding assay with A26-Fl; details: read-out: Ki PPIL1; FP competition with 0.5 nM A26-Fl, 24 h
CypD [2] = target: T2, CypD (Homo sapiens, UniProt P30405); assay: Competition anisotropy binding assay with A26-Fl; details: read-out: Ki CypD; FP competition with 0.5 nM A26-Fl, 24 h
CypB [3] = target: T3, CypB (Homo sapiens, UniProt P23284); assay: Competition anisotropy binding assay with A26-Fl; details: read-out: Ki CypB; FP competition with 0.5 nM A26-Fl, 24 h
CypA [4] = target: T4, CypA (Homo sapiens, UniProt P62937); assay: Competition anisotropy binding assay with A26-Fl; details: read-out: Ki CypA; FP competition with 0.5 nM A26-Fl, 24 h
CypE [5] = target: T5, CypE (Homo sapiens, UniProt Q9UNP9); assay: Competition anisotropy binding assay with A26-Fl; details: for Ki: read-out: Ki CypE, FP competition with 0.5 nM A26-Fl, 24 h
Cyp40 [6] = target: T6, Cyp40 (Homo sapiens, UniProt Q08752); assay: Competition anisotropy binding assay with A26-Fl; details: read-out: Ki Cyp40; FP competition with 0.5 nM A26-Fl, 24 h
PPIL3 = PPIL3 (Homo sapiens, UniProt Q9H2H8); assay: Competition anisotropy binding assay with A26-Fl; details: read-out: Ki PPIL3; FP competition with 0.5 nM A26-Fl, 24 h
PPIL1 [7] = target: T1, PPIL1; assay: Chymotrypsin coupled prolyl-isomerase assay; format: biochemical
NKTR = NKTR (Homo sapiens, UniProt P30414); assay: Chymotrypsin coupled prolyl-isomerase assay; format: biochemical
CypB [8] = target: T3, CypB; details: read-out: Wild-Type Cyclophilin Prolyl Isomerase Inhibition IC50 Values, CypB; wild-type CypB
CypD [9] = target: T2, CypD; assay: Chymotrypsin coupled prolyl-isomerase assay; format: biochemical; details: read-out: Wild-Type Cyclophilin Prolyl Isomerase Inhibition IC50 Values, CypD; wild-type CypD
CypA [10] = target: T4, CypA; assay: Chymotrypsin coupled prolyl-isomerase assay; format: biochemical
CypG = CypG (Homo sapiens, UniProt Q13427); assay: Chymotrypsin coupled prolyl-isomerase assay; format: biochemical
CypH = CypH (Homo sapiens, UniProt O43447); assay: Chymotrypsin coupled prolyl-isomerase assay; format: biochemical
CypE [11] = target: T5, CypE; assay: Chymotrypsin coupled prolyl-isomerase assay; format: biochemical
CypC = CypC (Homo sapiens, UniProt P45877); assay: Chymotrypsin coupled prolyl-isomerase assay; format: biochemical
Cyp40 [12] = target: T6, Cyp40; assay: Chymotrypsin coupled prolyl-isomerase assay; format: biochemical
PPWD1 = PPWD1 (Homo sapiens, UniProt Q96BP3); assay: Chymotrypsin coupled prolyl-isomerase assay; format: biochemical
[13] = read-out: Wild-Type Cyclophilin Prolyl Isomerase Inhibition IC50 Values, PPIL1, wild-type PPIL1
[14] = read-out: Wild-Type Cyclophilin Prolyl Isomerase Inhibition IC50 Values, NKTR, wild-type NKTR
[15] = read-out: Wild-Type Cyclophilin Prolyl Isomerase Inhibition IC50 Values, CypA, wild-type CypA
[16] = read-out: Wild-Type Cyclophilin Prolyl Isomerase Inhibition IC50 Values, CypG, wild-type CypG
[17] = read-out: Wild-Type Cyclophilin Prolyl Isomerase Inhibition IC50 Values, CypH, wild-type CypH
[18] = read-out: Wild-Type Cyclophilin Prolyl Isomerase Inhibition IC50 Values, CypE, wild-type CypE
[19] = read-out: Wild-Type Cyclophilin Prolyl Isomerase Inhibition IC50 Values, CypC, wild-type CypC
[20] = read-out: Wild-Type Cyclophilin Prolyl Isomerase Inhibition IC50 Values, PPWD1, wild-type PPWD1
[21] = read-out: Wild-Type Cyclophilin Prolyl Isomerase Inhibition IC50 Values, Cyp40, wild-type Cyp40
[22] = read-out: IC50 CypG, prolyl-isomerase inhibition, 5 nM cyclophilin
[23] = read-out: IC50 NKTR, prolyl-isomerase inhibition, 5 nM cyclophilin
[24] = read-out: IC50 PPWD1, prolyl-isomerase inhibition, 5 nM cyclophilin
[25] = read-out: IC50 CypC, prolyl-isomerase inhibition, 5 nM cyclophilin

By UniProt entry, the sequences of proteins in these tests, tags left out. Residues count along the entry.
UniProt Q9Y3C6, whole entry: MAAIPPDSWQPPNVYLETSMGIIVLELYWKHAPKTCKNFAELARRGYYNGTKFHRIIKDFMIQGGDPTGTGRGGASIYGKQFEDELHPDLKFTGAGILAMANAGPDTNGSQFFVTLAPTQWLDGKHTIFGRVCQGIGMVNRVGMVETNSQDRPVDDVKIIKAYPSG
UniProt P30405, 45-207 limits assumed: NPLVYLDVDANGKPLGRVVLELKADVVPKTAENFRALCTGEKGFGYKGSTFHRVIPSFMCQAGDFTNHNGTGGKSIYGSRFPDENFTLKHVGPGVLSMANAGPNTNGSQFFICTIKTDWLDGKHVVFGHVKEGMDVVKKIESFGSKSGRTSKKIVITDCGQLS
UniProt P23284, 34-216 limits assumed: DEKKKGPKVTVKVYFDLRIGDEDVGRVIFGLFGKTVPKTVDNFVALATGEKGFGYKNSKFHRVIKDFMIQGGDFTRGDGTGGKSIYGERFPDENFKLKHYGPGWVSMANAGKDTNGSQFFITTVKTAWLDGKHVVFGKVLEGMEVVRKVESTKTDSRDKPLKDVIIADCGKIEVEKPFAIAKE
UniProt P62937, whole entry: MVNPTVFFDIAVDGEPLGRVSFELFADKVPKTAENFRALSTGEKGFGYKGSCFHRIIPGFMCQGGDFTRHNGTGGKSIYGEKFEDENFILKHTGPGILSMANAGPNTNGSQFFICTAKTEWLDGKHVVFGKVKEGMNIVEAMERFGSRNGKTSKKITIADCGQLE
UniProt Q9UNP9, 131-301 limits assumed: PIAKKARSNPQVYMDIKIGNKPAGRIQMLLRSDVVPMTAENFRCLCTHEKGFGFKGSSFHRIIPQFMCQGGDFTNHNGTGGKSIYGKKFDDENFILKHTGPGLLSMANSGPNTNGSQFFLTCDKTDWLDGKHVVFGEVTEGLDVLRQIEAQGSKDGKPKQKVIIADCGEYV
UniProt Q08752, 1-183 limits assumed: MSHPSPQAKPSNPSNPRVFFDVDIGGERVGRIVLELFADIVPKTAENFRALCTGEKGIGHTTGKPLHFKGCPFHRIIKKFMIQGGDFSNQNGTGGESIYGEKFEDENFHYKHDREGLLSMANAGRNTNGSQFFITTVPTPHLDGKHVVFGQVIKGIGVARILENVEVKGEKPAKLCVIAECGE
UniProt Q9H2H8, whole entry: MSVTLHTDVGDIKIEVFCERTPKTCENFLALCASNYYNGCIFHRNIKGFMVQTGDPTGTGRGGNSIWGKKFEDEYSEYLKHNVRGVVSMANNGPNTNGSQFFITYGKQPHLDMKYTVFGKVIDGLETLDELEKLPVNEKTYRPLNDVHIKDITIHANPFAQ
UniProt P30414, 7-179 limits assumed: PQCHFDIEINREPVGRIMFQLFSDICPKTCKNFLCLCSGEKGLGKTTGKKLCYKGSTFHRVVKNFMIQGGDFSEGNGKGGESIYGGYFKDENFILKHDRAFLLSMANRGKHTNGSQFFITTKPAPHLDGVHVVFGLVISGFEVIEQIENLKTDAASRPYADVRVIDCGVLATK
UniProt Q13427, 1-179 limits assumed: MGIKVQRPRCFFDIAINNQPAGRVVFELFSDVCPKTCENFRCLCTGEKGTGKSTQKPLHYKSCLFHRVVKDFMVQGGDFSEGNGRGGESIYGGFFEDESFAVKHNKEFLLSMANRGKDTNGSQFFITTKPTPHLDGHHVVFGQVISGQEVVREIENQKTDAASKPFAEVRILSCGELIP
UniProt O43447, whole entry: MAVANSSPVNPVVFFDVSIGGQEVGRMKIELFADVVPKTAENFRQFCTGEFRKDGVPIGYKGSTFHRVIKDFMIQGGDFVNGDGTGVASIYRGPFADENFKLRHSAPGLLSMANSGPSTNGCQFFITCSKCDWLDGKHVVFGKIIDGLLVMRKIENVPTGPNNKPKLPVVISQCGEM
UniProt P45877, 24-212 limits assumed: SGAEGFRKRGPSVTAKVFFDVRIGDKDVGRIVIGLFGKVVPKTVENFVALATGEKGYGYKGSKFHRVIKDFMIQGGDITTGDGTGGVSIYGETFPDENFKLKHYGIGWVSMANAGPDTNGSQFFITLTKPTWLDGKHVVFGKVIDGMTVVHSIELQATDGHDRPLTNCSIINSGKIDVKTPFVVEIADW
UniProt Q96BP3, 473-646 limits assumed: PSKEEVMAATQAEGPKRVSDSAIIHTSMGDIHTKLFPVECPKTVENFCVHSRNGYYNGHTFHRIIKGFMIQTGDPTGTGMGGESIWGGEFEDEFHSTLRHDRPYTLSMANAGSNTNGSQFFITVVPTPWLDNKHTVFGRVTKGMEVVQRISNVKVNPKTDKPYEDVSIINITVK

Row | SMILES | IC50 (PPIL1 [7]; [13]) [nM] | IC50 (NKTR; [14]) [nM] | IC50 (CypB [8]) [nM] | IC50 (CypD [9]) [nM] | IC50 (CypA [10]; [15]) [nM] | IC50 (CypG; [16]) [nM] | IC50 (CypH; [17]) [nM] | IC50 (CypE [11]; [18]) [nM] | IC50 (CypC; [19]) [nM] | IC50 (Cyp40 [12]) [nM] | IC50 (PPWD1; [20]) [nM] | other results
1 | CC(=O)c1cc(-c2ccc(C[C@@H]3NC(=O)[C@]4(Cc5ccccc5)CCCN(C4)C(=O)/C=C/C(=O)NCC[C@@H](C(N)=O)NC(=O)Cc4ccccc4CNC3=O)cc2)ccc1B(O)O | – | – | – | – | – | – | – | – | – | – | – | Ki (PPIL1 [1]): 7500 nM; Ki (CypD [2]): 1700 nM; Ki (CypB [3]): > 10000 nM; Ki (CypA [4]): > 10000 nM; Ki (CypE [5]): 940 nM; Ki (Cyp40 [6]): > 10000 nM; Ki (PPIL3): > 10000 nM
2 | NC(=O)[C@@H]1CCNC(=O)/C=C/C(=O)N2CCC[C@](Cc3ccccc3)(C2)C(=O)N[C@@H](Cc2ccc(-c3ccc(C(CC(=O)O)CC(=O)O)cc3)cc2)C(=O)NCc2ccccc2CC(=O)N1 | > 50000 | > 50000 | 4000 | 100 | 6000 | > 50000 | > 50000 | 1000 | > 50000 | > 50000 | > 50000 | –
3 | CC(=O)c1cccc(-c2ccc(C[C@@H]3NC(=O)[C@]4(Cc5ccccc5)CCCN(C4)C(=O)/C=C/C(=O)NCC[C@@H](C(=O)NCCOCCN)NC(=O)Cc4ccccc4CNC3=O)cc2)c1 | 1100 | > 100000 | 130 | 210 | 350 | > 100000 | 40000 | 900 | 700 | – | 4100 | IC50 (Cyp40 [12]; [21]): 300 nM
4 | NCCOCCNC(=O)[C@@H]1CCNC(=O)/C=C/C(=O)N2CCC[C@](Cc3ccccc3)(C2)C(=O)N[C@@H](Cc2ccc(-c3ccc(CC[N+](=O)[O-])cc3)cc2)C(=O)NCc2ccccc2CC(=O)N1 | 400 | > 50000 | 230 | 95 | 800 | > 50000 | > 50000 | 140 | 2200 | 1700 | 7000 | –
5 | NCCOCCNC(=O)[C@@H]1CCNC(=O)/C=C/C(=O)N2CCC[C@](Cc3ccccc3)(C2)C(=O)N[C@@H](Cc2ccc(-c3ccc(C(N)=O)cc3)cc2)C(=O)NCc2ccccc2CC(=O)N1 | 300 | > 100000 | 220 | 110 | 700 | 40000 | 40000 | 400 | 1900 | – | 3000 | IC50 (Cyp40 [12]; [21]): 260 nM
6 | Cc1cccc(-c2ccc(C[C@@H]3NC(=O)[C@]4(Cc5ccccc5)CCCN(C4)C(=O)/C=C/C(=O)NCC[C@@H](C(=O)NCCOCCN)NC(=O)Cc4ccccc4CNC3=O)cc2)c1 | 3000 | > 50000 | 170 | 390 | 1200 | > 50000 | > 100000 | 1000 | 500 | – | 12000 | IC50 (Cyp40 [12]; [21]): 600 nM
7 | CC(C)(C)c1ccc(C[C@@H]2NC(=O)[C@]3(Cc4ccccc4)CCCN(C3)C(=O)/C=C/C(=O)NCC[C@@H](C(=O)NCCOCCN)NC(=O)Cc3ccccc3CNC2=O)cc1 | 1300 | > 100000 | 90 | 64 | 300 | 36000 | > 100000 | 510 | 136 | 200 | 1600 | IC50 (CypG; [22]): 40000 nM
8 | NCCOCCNC(=O)[C@@H]1CCNC(=O)/C=C/C(=O)N2CCC[C@](Cc3ccccc3)(C2)C(=O)N[C@@H](Cc2ccc(-c3ccc4c(c3)OCC4CC(=O)O)cc2)C(=O)NCc2ccccc2CC(=O)N1 (single isomer, unassigned) [B37] | 160 | 50000 | 20 | 8 | 72 | 40000 | 10000 | 9.7 | 7000 | 4000 | 19000 | IC50 (NKTR; [23]): > 50000 nM; IC50 (CypH; read-out: IC50 CypH, prolyl-isomerase inhibition, 5 nM cyclophilin): 10000 nM
9 | NCCOCCNC(=O)[C@@H]1CCNC(=O)/C=C/C(=O)N2CCC[C@](Cc3ccccc3)(C2)C(=O)N[C@@H](Cc2ccc(O)cc2)C(=O)NCc2ccccc2CC(=O)N1 | 2200 | 39000 | 300 | 490 | 1300 | 19000 | 1500 | 1100 | 810 | 1100 | 10000 | IC50 (PPWD1; [24]): 10000 nM
10 | C[C@H](Oc1ccc(-c2ccc(C[C@@H]3NC(=O)[C@]4(Cc5ccccc5)CCCN(C4)C(=O)/C=C/C(=O)NCC[C@@H](C(=O)NCCOCCN)NC(=O)Cc4ccccc4CNC3=O)cc2)cc1)C(=O)O | 1600 | > 10000 | 400 | 170 | 2400 | 9000 | > 10000 | 700 | 15000 | 500 | > 10000 | IC50 (CypG; [22]): 9000 nM; IC50 (CypC; [25]): 15000 nM
11 | NC(=O)[C@@H]1CCNC(=O)/C=C/C(=O)N2CCC[C@](Cc3ccccc3)(C2)C(=O)N[C@@H](Cc2ccc(-c3ccc(C=O)cc3)cc2)C(=O)NCc2ccccc2CC(=O)N1 | > 10000 | 2000 | 2000 | 180 | 5000 | 7000 | > 10000 | – | 3000 | 500 | 5000 | reduced potency relative to C3A (CypE [5]; FP competition with A26-Fl, CypE): 16 fold; Ki (CypE [5]): 1200 nM; IC50 (PPIL1 [7]; read-out: IC50 PPIL1, prolyl-isomerase inhibition, 5 nM cyclophilin): 2000 nM; IC50 (NKTR; [23]): > 10000 nM; IC50 (CypA [10]; read-out: IC50 CypA, prolyl-isomerase inhibition, 5 nM cyclophilin): 5000 nM; IC50 (CypG; [22]): 7000 nM; IC50 (CypE [11]; read-out: IC50 CypE, prolyl-isomerase inhibition, 5 nM cyclophilin): 1000 nM; IC50 (CypC; [25]): 3000 nM; IC50 (PPWD1; [24]): 5000 nM
